Biological target: Histamine H1 receptor (Homo sapiens, UniProt P35367)
Assay: Binding affinity for recombinant human Histamine H1 receptor expressed in CHO K1 cells
Type: cell-based

Sequences of proteins named here, by UniProt entry; tags and fusion partners are left off.
UniProt P35367, whole entry: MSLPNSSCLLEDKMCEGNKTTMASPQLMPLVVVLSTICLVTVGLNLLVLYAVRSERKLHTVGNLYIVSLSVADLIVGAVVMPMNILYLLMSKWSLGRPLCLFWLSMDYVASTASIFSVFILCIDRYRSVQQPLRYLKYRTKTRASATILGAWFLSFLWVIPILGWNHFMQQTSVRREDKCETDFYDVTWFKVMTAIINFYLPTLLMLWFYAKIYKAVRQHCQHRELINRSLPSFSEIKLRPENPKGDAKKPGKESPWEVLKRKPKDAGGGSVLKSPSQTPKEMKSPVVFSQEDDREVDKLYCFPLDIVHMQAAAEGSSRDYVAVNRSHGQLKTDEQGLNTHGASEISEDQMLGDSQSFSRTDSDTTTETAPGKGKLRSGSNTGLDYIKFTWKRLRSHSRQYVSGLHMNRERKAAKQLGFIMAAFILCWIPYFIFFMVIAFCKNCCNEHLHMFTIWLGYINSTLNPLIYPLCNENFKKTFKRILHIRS

For `NC(=O)N(O)CCC#Cc1ccc(OCCCCN2CCN(C(c3ccc(F)cc3)c3ccc(F)cc3)CC2)cc1`, the Ki was 3.63 nM.

From ChEMBL document CHEMBL1141893, “5-Lipoxygenase inhibition by N-hydroxycarbamates in dual-function compounds” (Bioorg Med Chem Lett, 2005)
